{"source": "patent US20200085742A1", "about": "“NANOSCALE CARRIERS FOR THE DELIVERY OR CO-DELIVERY OF CHEMOTHERAPEUTICS, NUCLEIC ACIDS AND PHOTOSENSITIZERS” (The University of Chicago, priority 2013, published 2020)", "system": "H460 cells", "assay": "Cytotoxicity of Pten and Pten-NCP", "settings": "Pt concentration of up to 50 μM", "data": [{"substance": "bis(ethylenediamine)platinum bisphosphonic acid [Pten]", "values": [{"measurement": "cytotoxicity", "value": "no cytotoxicity"}]}]}
